Experimental findings from ChEMBL document CHEMBL3632608, “Effects of alkyl side chains and terminal hydrophilicity on vitamin D receptor (VDR) agonistic activity based on the diphenylpentane skeleton” (Bioorg Med Chem Lett, 2015) are described below.

The structures appear in SMILES notation. Active and inactive are the calls of the source. No cut-off for these calls is given here.

Format in all cases: cell-based
The target of assay [1] is T1, Vitamin D3 receptor (Homo sapiens) (UniProt P11473).
T1 sequence (whole entry): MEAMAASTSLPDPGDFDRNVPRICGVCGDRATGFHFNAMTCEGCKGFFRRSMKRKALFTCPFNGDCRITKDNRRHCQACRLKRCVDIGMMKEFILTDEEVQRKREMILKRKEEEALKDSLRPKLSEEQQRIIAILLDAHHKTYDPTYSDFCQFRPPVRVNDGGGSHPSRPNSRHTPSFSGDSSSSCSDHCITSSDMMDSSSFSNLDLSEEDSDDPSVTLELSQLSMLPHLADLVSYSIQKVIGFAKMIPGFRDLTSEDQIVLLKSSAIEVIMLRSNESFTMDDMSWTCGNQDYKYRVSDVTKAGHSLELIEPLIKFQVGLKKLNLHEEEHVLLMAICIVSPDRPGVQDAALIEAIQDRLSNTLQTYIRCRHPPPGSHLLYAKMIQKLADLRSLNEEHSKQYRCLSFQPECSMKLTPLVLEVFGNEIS
The experiment in a line: Agonist activity at human VDR expressed in HEK293 cells co-expressing CMX-GAL4N and TK-MH100x4-LUC assessed as induction of transcriptional activity at 10 uM by beta-galactosidase reporter gene assay relative to 1alpha,25(OH)2VD3.

Assay [2] has as its target T1, Vitamin D3 receptor (Homo sapiens). The experiment in a line: Agonist activity at human VDR expressed in HEK293 cells co-expressing CMX-GAL4N and TK-MH100x4-LUC assessed as induction of transcriptional activity at 3 uM by beta-galactosidase reporter gene assay relative to 1alpha,25(OH)2VD3. Background: In a reporter assay the amount or activity of a reporter protein is the signal.

Assay [3] shares this target. The experiment in a line: Antagonist activity at human VDR expressed in HEK293 cells co-expressing CMX-GAL4N and TK-MH100x4-LUC assessed as inhibition of 1alpha,25(OH)2VD3-induced transcriptional activity up to 10 uM by beta-galactosidase reporter gene assay.
For assay [4] the target is unchanged. The experiment in a line: Agonist activity at VDR in human HL60 cells assessed as induction of cell differentiation at 10 uM by NBT reduction assay. The note with it: HL-60.

For the compound `CCCCCCCCOC(C)(C)[C@H](O)COc1ccc(C(CC)(CC)c2ccc(OC[C@@H](O)CO)c(C)c2)cc1C`, the result in assay [1] and in assay [2] was inactive. For the same compound, the inhibition entry in assay [3] was “inactive”.
As for `CCCCCCCCOC(C)(C)[C@@H](O)COc1ccc(C(CC)(CC)c2ccc(OC[C@@H](O)CO)c(C)c2)cc1C`, the Activity in assay [4] is 22.2%; in assay [2], 13%. Besides, in assay [3], the inhibition entry is “inactive”.
Consider `CCCCCCCCCCOC(C)(C)[C@H](O)COc1ccc(C(CC)(CC)c2ccc(OC[C@@H](O)CO)c(C)c2)cc1C`, for which the result in assay [1] and in assay [2] was inactive. Also, the inhibition result in assay [3] was “inactive”.
In the case of `CCCCCCCCCCOC(C)(C)[C@@H](O)COc1ccc(C(CC)(CC)c2ccc(OC[C@@H](O)CO)c(C)c2)cc1C`, the outcome in assay [1] and in assay [2] was inactive. For the same compound, the Activity in assay [4] was 6.9%. Further, the inhibition entry in assay [3] was “inactive”.
